Target: T1, MAO-A (Homo sapiens, UniProt P21397)
T1 construct: tissue Banner Sun Health Research Institute; host or cells: postmortem human anterior cingulate / corpus callosum sections (CN, AD, PD subjects)
Assay: Effect of drugs on the binding of [^18F]FAZIN3 in postmortem human brain sections
Conditions: drug 1 μM
Description: MK-6240 (10 μM) was used since it is known to bind to Tau. […] The slides containing the sections (10 μm thick) were preincubated in PBS buffer for 15 minutes in eight different slide chambers (one total binding and seven with the different drugs). The preincubation PBS buffer was discarded and appropriate amount of each drug (dissolved in ethanol) was added to the chambers with the slides. […] The chambers were incubated at 25° C. for 1.25 h. The slides were then washed with cold PBS buffer twice, and cold water, respectively. The slides with the brain sections were air dried, exposed overnight on a phosphor film, and then placed on the Phosphor Autoradiographic Imaging System/Cyclone Storage Phosphor System (Packard Instruments Co).

Amino acid sequences for entries named in this document (tags omitted).
UniProt P21397, whole entry: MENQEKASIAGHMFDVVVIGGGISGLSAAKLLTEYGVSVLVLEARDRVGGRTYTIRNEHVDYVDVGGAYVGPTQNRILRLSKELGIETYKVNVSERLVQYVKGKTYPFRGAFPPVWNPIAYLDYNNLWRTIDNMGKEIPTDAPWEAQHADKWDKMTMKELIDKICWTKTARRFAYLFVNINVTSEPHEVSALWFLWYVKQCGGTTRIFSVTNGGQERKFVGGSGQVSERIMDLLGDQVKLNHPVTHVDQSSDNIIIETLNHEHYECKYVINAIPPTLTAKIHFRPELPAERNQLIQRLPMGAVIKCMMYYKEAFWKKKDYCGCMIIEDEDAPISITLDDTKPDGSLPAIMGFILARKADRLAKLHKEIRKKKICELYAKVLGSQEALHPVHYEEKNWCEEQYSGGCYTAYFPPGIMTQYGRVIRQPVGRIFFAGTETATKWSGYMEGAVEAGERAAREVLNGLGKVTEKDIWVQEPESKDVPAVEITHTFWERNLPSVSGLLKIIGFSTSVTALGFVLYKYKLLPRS

| SMILES | displacement (inhibition) of [^18F]FAZIN3 binding | displacement (inhibition) of [^18F]FAZIN3 binding (listed as deprenyl) |
| --- | --- | --- |
| C#CCN(C)CCCOc1ccc(Cl)cc1Cl [Clorgyline] | more than 80% |  |
| C#CCN(C)C(C)Cc1ccccc1 (stereo not drawn) [Deprenyl] | little effect | did not have much effect |
